We go through one compound from ChEMBL document CHEMBL4627396 (J Med Chem, 2020).

Amino acid sequences for entries named in this document (tags omitted). A change or cut given only in a name is not applied to a line headed by its entry.
UniProt O60331: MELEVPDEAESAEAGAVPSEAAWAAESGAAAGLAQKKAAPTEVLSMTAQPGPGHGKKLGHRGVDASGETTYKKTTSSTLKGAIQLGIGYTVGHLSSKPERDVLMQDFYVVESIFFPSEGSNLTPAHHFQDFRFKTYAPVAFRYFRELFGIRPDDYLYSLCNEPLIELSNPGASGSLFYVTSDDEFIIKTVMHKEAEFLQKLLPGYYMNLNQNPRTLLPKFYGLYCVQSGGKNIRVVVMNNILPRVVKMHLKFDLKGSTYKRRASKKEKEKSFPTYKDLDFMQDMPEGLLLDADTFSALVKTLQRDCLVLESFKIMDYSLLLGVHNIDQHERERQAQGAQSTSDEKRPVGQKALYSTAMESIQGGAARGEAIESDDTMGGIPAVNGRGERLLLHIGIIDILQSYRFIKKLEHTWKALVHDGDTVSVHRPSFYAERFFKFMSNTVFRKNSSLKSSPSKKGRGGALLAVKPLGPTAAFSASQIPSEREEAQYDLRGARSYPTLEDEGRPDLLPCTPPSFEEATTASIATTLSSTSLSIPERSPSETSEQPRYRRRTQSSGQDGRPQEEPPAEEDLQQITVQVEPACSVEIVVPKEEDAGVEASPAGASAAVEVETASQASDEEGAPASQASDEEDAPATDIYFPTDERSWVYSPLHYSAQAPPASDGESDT

Series [1] can be described thus: Apparent permeability across apical to basolateral side in human Caco2 cells. The note with it: caco-2. Type of series: ADME, cell-based.
Series [2] is described as follows: Protein binding in mouse plasma. In kind it is ADME, cell-free.
The nature of series [3]: AUC (0 to infinity) in Crl:CD Sprague-Dawley rat at 1 mg/kg, iv. Type of series: ADME, organism-based. Details: dose 1 mg/kg, route intravenous, time infinity. The note with it: in vivo.
Series [4] can be described thus: Volume of distribution at steady state in Crl:CD Sprague-Dawley rat at 1 mg/kg, iv. In kind it is ADME, organism-based. The following applies: in vivo.
The target of series [5] is Phosphatidylinositol 4-phosphate 5-kinase type-1 gamma (Homo sapiens, UniProt O60331). Briefly: Binding affinity to wild-type human partial length PIP5K1C (M1 to T668 residues) expressed in mammalian expression system assessed as residual binding level at 1 uM by Kinomescan method relative to control.

In the case of `CC(C)(C#N)c1cc(Nc2nc(N3CCC[C@H](N)C3)ncc2C(N)=O)cc(C(C)(C)C#N)c1`, the Papp – broadly, the rate of passage across a membrane or cell layer, normalised by area and donor concentration – in series [1] amounted to 1.1 ×10⁻⁶ cm/s. Besides, the PPB in series [2] came to 98.4%. The AUC (usually concentration integrated over time) in series [3] was determined as 134 ng·h/mL. Besides, the distribution volume (Vdss) (in general, a proportionality between amount in the body and measured concentration, not a real space) in series [4] was found to be 40.3 L/kg. Further, the Activity in series [5] was 3%.
